# Yeast mating assay B: variants of the scFv Ab-14

The measurements come from Li et al. 2023 (doi:10.1038/s41467-023-39022-2) through the FLAb antibody collection.

Antigen: PDVDLGDISGINAS, a 14-residue peptide of the SARS-CoV-2 spike HR2 region.

Parent scFv Ab-14: VH joined to VL by the linker GGGGSGGGGSGGGGS. Changes lie in the light chain CDRs alone.
VH: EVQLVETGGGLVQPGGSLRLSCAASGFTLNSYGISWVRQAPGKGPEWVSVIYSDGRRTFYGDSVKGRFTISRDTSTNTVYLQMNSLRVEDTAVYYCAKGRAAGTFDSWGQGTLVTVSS
VL: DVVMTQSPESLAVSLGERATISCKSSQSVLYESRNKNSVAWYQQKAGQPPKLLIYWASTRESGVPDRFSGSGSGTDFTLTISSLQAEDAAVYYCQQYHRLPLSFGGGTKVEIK

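Designed CDR sequences, proposed from the first random library and measured here. Group labels follow the data file (Ctrl: baseline library sampled from a position-specific scoring matrix, with some repeated check sequences; En: ensemble of fine-tuned language models; GP: Gaussian process model; HC: hill climbing; Gen: genetic algorithm; Gibbs: Gibbs sampling; a sequence that several methods proposed may carry one label only). In AlphaSeq, yeast of one mating type display the scFv and yeast of the other type display the target. Mating (16 h, 30 °C) was followed by selection of diploids and sequencing of their barcodes. The ratio of observed to expected reads was calibrated, replicate by replicate, on BCL2-family standards whose Kd was known from biolayer interferometry. The assay was run in six technical replicates.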

The parent's light chain CDRs are KSSQSVLYESRNKNSVA, WASTRES, QQYHRLPLS; each variant's own CDRs replace them letter for letter.
The read-out is the apparent dissociation constant on a log10 scale (nM): the lower, the stronger.
Averages over replicates are reported, and they cover detected replicates only.
A pair that was not seen in any replicate is written "no signal"; this usually means weak binding, but a binder can also be missed.

CDR-L1	CDR-L2	CDR-L3	group	mean log10 Kd (nM)	detected
QLSMITGHVSMTKNNVA	EMETRMN	QQYDRLPLS	En_Gen	0.91	6 of 6
KFAYQADMYGAQCNNVA	HADIREP	QQYFKLPLN	En_Gibbs	0.65	6 of 6
KMSPSVLYESHNKNSVA	NASTRMS	QQYHRLPLS	GP_HC	-0.04	6 of 6
KFSQSDLYEDRAKNSVA	NASTRLW	QQYHRLPLS	GP_Gibbs	0.01	6 of 6
QLTMITGHMSVSKNNVA	EMETRVN	QQYDRLPLS	En_Gen	0.55	6 of 6
MMSSLMGYESRNIQNVA	QTSTRES	QQYDRLPLI	En_Gen	0.32	6 of 6
KISESWLYEPRNSNSVA	HASTRLQ	QQYHRLPLS	GP_Gibbs	0.25	6 of 6
KSSQSVLYESDNKNSVA	QASTRIV	QAYHRLPLS	Ctrl	1.05	6 of 6
KLSQSMSYEWRNCNNVA	NASQRLS	QQYHRLPLS	GP_Gibbs	0.71	6 of 6
SLDSYVGYDLQNKKNIA	EETRVDR	QQYAHLPLM	En_Gibbs	0.99	6 of 6
KSSQSVLAESRNKNSVA	WASTRES	QQYHHLPLS	Ctrl	0.43	6 of 6
KLQQSVCMESRNKNSVA	NASKREE	QQYHRLPLS	GP_Gibbs	0.79	6 of 6
RLGMNFTWPGNARQSVA	EIQKAID	QQYAHLPLS	En_Gibbs	no signal	0 of 6
KWQWSWLYSSRNKNSVA	EGSTRES	QQYHRLPLS	GP_Gibbs	1.05	6 of 6
KISQSTLYESRGKNSVA	NASTRES	QQYHRLPLS	Ctrl	-0.32	6 of 6
KISQSVLYESRNKNSVA	DASTRES	QQYHRLPLD	GP_HC	-0.14	6 of 6
QMYPFGLAKGEGSNNVA	HVSTRAL	QQYFRLPLV	En_Gibbs	0.29	6 of 6
KISQAYLYESRNCNSVA	QANQRES	QQYHRLPLS	GP_Gibbs	0.01	6 of 6
NIVGRVEDKQTENANIA	DAHCRAG	QQYSRLPLS	En_Gibbs	0.22	6 of 6
KSSQSVLYESTNKNSIA	AASTRES	QQYHRLPLS	Ctrl	2.87	2 of 6
KQQQSGMMESRNDNSVA	HASTRLS	QQYHRLPLS	GP_Gibbs	0.08	6 of 6
KISGSYLGESRNWNAVA	EASQREQ	QQYHRLPLS	GP_Gibbs	0.15	6 of 6
FLSQSVLYESRNKNSVA	NASTREQ	QQYHRLPLS	GP_Gen	-0.16	6 of 6
SLPNARPDGYLQKNNVA	EGTERSD	QQYMRLPLF	En_Gibbs	-0.15	6 of 6
ILSQSVLMGSHLKNSVA	QASTRFS	QQYHRLPLI	En_HC	0.61	6 of 6

Further variants, results first:

mean log10 Kd (nM)	detected	CDR-L1	CDR-L2	CDR-L3	group
-0.35	6 of 6	KQSQEGLYESRNKNSVA	DASTRES	QQYHRLPLS	GP_HC
-0.31	6 of 6	KLSQSWLYESRNKNSVA	NASTRMS	QDYHRLPLS	GP_Gen
-0.33	6 of 6	KSSPSELFESRNKNSVA	DASTRES	QQYHRLPLS	GP_HC
-0.32	6 of 6	KLSQSVLYEERNKNNVA	DASTRES	QQYHRLPLS	GP_Gen
1.55	3 of 6	IVSQLMIWGMHVKNSIA	EAELRLN	QQYERLPLF	En_Gen
1.95	1 of 6	KSSQSVLHESRNKNSVA	WASTRES	QSYHRLPLS	Ctrl
no signal	0 of 6	MISQVMNTLTRNGNNVA	DLAEREN	QQYFRLPLS	En_Gen
2.30	5 of 6	KIGHGLTTEMYNRNSVA	QTETRVN	QHYHRLPLS	En_HC
0.89	6 of 6	TLGDVTRMESNKKNSIA	DMSNRAD	QQYHRLPLD	En_HC
0.28	6 of 6	KMEQGVLYESRNKGSVA	EASVRES	QQYHRLPLS	GP_HC
no signal	0 of 6	HLGMLTMLEEYVRNSVA	NNSTREE	QQYDRLPLS	En_Gen
-0.33	6 of 6	KLSQSWLYLSRNSNAVA	NASQREQ	QQYHRLPLS	GP_Gibbs
1.02	6 of 6	SLQTKYSIAQDRWSNVA	HADQREA	QQYFRLPIV	En_Gibbs
-0.01	6 of 6	KVQQSWLYESRNKNSVA	NASQRES	QQYHRLPLS	GP_Gen
1.94	6 of 6	KISYQYRFEQLAKNNIA	EVVTRLK	QQYHRLPLS	En_HC
0.68	6 of 6	KSAQSVPYESRNKNSVA	EASTRES	QQYHRLPLS	GP_Gen
2.23	4 of 6	KSSQSVLYESRTKNSVA	WASTREK	QQYHRLPLS	Ctrl
no signal	0 of 6	KSSQSVLYERWNKNSVA	QHSARES	FQYHYLPLS	Ctrl
2.15	5 of 6	IVSQLMLWGHLAKNSIA	EAQTRVN	QQYDRLPLM	En_Gen
no signal	0 of 6	KSSNSVLYESRNKNSVA	WASTRES	QQKHRLPLS	Ctrl
0.27	6 of 6	KLSQSKEYESRQKNSVA	NASTREL	QQYHRLPLS	GP_Gibbs
1.58	6 of 6	KFSQDVLVESRYKNSVA	WASTRES	QQVHRLPLS	Ctrl
0.18	6 of 6	KSMQSVDYESRNKNSVA	NGQTREE	QQYHRLPLS	GP_Gibbs
1.09	6 of 6	MVTQMAMTGMMSKRSVA	NAETREH	QQYHHLPLI	En_Gen
0.18	6 of 6	KSLQSVLDESRDKNSVA	HASTRED	QQYHRLPLS	GP_HC

A selection of 8 entries from above:

{"CDR-L1": "KISQSVLYESRNKNSVA", "CDR-L2": "DASTRES", "CDR-L3": "QQYHRLPLD", "group": "GP_HC", "mean log10 Kd (nM)": "-0.14", "detected": "6 of 6"}
{"CDR-L1": "KLSQSVLYEERNKNNVA", "CDR-L2": "DASTRES", "CDR-L3": "QQYHRLPLS", "group": "GP_Gen", "mean log10 Kd (nM)": "-0.32", "detected": "6 of 6"}
{"CDR-L1": "KLSQSKEYESRQKNSVA", "CDR-L2": "NASTREL", "CDR-L3": "QQYHRLPLS", "group": "GP_Gibbs", "mean log10 Kd (nM)": "0.27", "detected": "6 of 6"}
{"CDR-L1": "KFSQDVLVESRYKNSVA", "CDR-L2": "WASTRES", "CDR-L3": "QQVHRLPLS", "group": "Ctrl", "mean log10 Kd (nM)": "1.58", "detected": "6 of 6"}
{"CDR-L1": "SLPNARPDGYLQKNNVA", "CDR-L2": "EGTERSD", "CDR-L3": "QQYMRLPLF", "group": "En_Gibbs", "mean log10 Kd (nM)": "-0.15", "detected": "6 of 6"}
{"CDR-L1": "KSSQSVLYESDNKNSVA", "CDR-L2": "QASTRIV", "CDR-L3": "QAYHRLPLS", "group": "Ctrl", "mean log10 Kd (nM)": "1.05", "detected": "6 of 6"}
{"CDR-L1": "MISQVMNTLTRNGNNVA", "CDR-L2": "DLAEREN", "CDR-L3": "QQYFRLPLS", "group": "En_Gen", "mean log10 Kd (nM)": "no signal", "detected": "0 of 6"}
{"CDR-L1": "MMSSLMGYESRNIQNVA", "CDR-L2": "QTSTRES", "CDR-L3": "QQYDRLPLI", "group": "En_Gen", "mean log10 Kd (nM)": "0.32", "detected": "6 of 6"}

A sequence measured in both rounds can read differently, since the two assays cover different ranges.
Of ten entries with the parent sequence, four were seen in most replicates (averages 0.34 to 2.37), three in one and three in none, so single entries are noisy.
As a blank, each scFv also met three strains without target: over all light chain designs, 4% of these pairings were detected, typically at 2.64 and seldom below 1.59.
In the paper, a design with two or fewer of six values counts as a poor binder.